The source of these data is patent US12570697B2, “Cyclic peptide useful in the treatment of cancer” (Syntherix Limited, priority 2019, dated 2026).

This data set has as its system NCI-H460 cells. Kind of data set: viability assay of CLIP cyclised peptides on NCI-H460 cells (Example 3, Table 2). To be noted: with and without Nanocin-PRO.

“Ac-C[Dac]R[Sar][dmPro]R[Nap]C-NH2 [HILRa-CL-15]”: the “cytotoxic activity against NCIH460 cells (in words)” value was “showed activity”.
